System: cells with PCA
Assay: Analogous thromboelastometry experiments with different direct factor Xa inhibitors plus direct thrombin inhibitor
Assay type: cell-based
Settings: present tense
Protocol: Measurements were performed on a ROTEM® delta analyser (Pentapharm, Munich, Germany). ROTEM® assesses the kinetics and quality of clot formation and clot lysis in real-time. The clotting time (CT) is defined as the period of time from the start of the analysis until the start of clot formation, normally until the 2 mm amplitude is reached. The clot formation time is defined as the period until the 20 mm amplitude is reached. The alpha angle is defined as the angle between the centre line and a tangent to the curve through the 2 mm amplitude point, which is the end of the CT. The maximum amplitude of the curve is defined as the maximum clot firmness. The maximum of lysis represents the maximum fibrinolysis detected during the measurement. We focused on CT.
Briefly, after a short rest period, 300 μl of whole blood was pipetted into a cup pre-warmed at 37° C. Suspended cells were subsequently added to whole blood (5×10exp5 cells if no specification). Twenty μl of trigger reagent containing tissue factor (TF) (Innovin, Siemens, Marburg, Germany. Final dilution 1:17000/0.35 pM) diluted in Owren buffer (Siemens, Marburg, Germany) was then added to the cell-blood mixture followed by the necessary addition of 20 μl of 0.2 M CaCl2. After calcium addition, measurements started automatically. The procoagulant activity (PCA) of cells was also determined without addition of Innovin. […]

CN1CCc2nc(C(=O)N[C@@H]3C[C@@H](C(=O)N(C)C)CC[C@@H]3NC(=O)C(=O)Nc3ccc(Cl)cn3)sc2C1 [edoxaban, N′-(5-chloropyridin-2-yl)-N-[(1S,2R,4S)-4-(dimethylcarbamoyl)-2-[(5-methyl-6,7-dihydro-4H-[1,3]thiazolo[5,4-c]pyridine-2-carbonyl)amino]cyclohexyl]oxamide]
Modulation of PCA of cells by concomitant use of the direct factor Xa inhibitor with a direct thrombin inhibitor (hirudin or bivalirudin): able to modulate PCA
